Earlier results as cited in patent US20110201620A1, “2-(3-AMINOARYL) AMINO-4-ARYL-THIAZOLES AND THEIR USE AS C-KIT INHIBITORS” (AB SCIENCE, priority 2002, published 2011).

Chains of the proteins cited; added tags and fusions are not shown. Residues count along the entry.
UniProt P16234, 24-1089: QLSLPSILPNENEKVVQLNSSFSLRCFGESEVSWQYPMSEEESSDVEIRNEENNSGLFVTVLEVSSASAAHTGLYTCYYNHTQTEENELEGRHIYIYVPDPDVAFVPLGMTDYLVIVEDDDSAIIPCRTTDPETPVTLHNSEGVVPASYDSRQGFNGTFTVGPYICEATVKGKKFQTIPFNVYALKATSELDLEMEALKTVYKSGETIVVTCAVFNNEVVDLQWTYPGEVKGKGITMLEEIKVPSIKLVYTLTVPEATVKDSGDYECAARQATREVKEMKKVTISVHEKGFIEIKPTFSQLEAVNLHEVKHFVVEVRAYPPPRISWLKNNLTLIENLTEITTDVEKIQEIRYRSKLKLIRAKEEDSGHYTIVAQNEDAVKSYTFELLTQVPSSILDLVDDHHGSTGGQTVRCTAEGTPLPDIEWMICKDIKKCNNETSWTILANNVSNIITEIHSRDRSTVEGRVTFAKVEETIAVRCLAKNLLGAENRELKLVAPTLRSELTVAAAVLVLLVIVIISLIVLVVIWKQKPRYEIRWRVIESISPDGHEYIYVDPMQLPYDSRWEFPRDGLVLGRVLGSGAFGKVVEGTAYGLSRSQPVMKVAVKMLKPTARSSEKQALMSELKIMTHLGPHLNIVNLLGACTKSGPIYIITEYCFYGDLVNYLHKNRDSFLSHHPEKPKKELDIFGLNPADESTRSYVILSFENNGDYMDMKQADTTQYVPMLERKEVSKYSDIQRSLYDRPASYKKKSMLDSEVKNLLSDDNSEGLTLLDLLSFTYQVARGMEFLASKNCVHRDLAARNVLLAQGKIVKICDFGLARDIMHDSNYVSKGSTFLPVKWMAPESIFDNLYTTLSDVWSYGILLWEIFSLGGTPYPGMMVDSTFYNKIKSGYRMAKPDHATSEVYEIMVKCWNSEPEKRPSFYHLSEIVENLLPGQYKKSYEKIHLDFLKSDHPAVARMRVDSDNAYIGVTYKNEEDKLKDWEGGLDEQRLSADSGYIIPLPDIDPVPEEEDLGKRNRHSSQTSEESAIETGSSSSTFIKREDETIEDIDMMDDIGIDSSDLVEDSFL

Biological target: PDGFRA (Homo sapiens, UniProt P16234)
Conditions: read-out: Cell proliferation assay (IC50) PDGFRA; cited from earlier work

Structure (SMILES): Cc1ccc(NC(=O)c2ccc(CN3CCN(C)CC3)cc2)cc1Nc1nc(-c2cccnc2)cs1 [Compound 066, 4-(4-methyl-piperazin-1-ylmethyl)-N-[4-methyl-3-(4-pyridin-3-yl-thiazol-2-ylamino)-phenyl]-benzamide]
- IC50: 250 nM
